Data reported in US20240402196A1 (Exact Sciences Corporation, priority 2018, published 2024).

Chains of the proteins cited; added tags and fusions are not shown. Residues count along the entry.
UniProt P68871, 2-147 limits assumed: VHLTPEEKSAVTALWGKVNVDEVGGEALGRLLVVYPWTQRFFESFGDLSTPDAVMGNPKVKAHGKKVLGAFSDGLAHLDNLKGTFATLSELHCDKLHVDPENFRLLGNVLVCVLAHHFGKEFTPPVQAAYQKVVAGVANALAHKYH
UniProt P69905, 2-142 limits assumed: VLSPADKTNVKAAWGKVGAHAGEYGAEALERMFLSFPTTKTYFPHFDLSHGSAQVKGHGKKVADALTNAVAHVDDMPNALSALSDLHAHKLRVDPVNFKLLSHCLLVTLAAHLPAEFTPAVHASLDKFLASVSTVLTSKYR

Target: T1, Hb (Homo sapiens, UniProt P68871+P69905)
T1 construct: To assess the stability of hemoglobin in stool samples, samples were exposed to simulated shipping stress conditions; from tissue; host or cells: stool samples
Test: Appendix B additive screen, % Hb Recovery

## Albumin, Human
  Results: No Improvement
